Assay results reported in patent publication US9687479B2, “Multisubstituted aromatic compounds as serine protease inhibitors” (VERSEON CORPORATION, priority 2013, dated 2017).

Protein sequences, listed by entry. Tags and fused reporters are not part of them. Residues count along the entry.
UniProt P03952, 20-390 partner limits assumed: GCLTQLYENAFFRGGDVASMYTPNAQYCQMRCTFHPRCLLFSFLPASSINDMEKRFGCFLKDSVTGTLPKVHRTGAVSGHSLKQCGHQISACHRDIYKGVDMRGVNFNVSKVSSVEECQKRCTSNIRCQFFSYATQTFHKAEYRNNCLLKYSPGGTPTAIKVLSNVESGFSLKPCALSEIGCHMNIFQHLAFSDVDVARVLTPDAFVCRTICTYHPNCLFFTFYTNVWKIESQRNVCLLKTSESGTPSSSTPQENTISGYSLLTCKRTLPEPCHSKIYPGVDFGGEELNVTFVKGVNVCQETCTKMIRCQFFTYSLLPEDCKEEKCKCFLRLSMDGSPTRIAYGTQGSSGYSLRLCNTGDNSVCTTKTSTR
UniProt P03952, 391-638 limits assumed: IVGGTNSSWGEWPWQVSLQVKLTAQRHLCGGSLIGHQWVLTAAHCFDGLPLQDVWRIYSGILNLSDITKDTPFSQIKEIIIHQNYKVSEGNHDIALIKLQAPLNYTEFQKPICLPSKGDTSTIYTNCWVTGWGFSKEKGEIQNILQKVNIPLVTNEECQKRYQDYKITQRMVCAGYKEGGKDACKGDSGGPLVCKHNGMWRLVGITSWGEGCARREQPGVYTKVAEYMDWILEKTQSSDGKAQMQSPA
UniProt P06870, 25-262: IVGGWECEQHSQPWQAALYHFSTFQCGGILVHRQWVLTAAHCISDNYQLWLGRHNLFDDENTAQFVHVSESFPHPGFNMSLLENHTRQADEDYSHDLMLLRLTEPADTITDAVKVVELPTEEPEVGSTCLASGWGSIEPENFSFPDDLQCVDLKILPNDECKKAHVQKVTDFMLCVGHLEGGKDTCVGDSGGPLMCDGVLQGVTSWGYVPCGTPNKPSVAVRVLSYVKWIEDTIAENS

How the values were obtained:
Human KLKB1 = Human KLKB1 (Homo sapiens (Human), UniProt P03952); experiment: KLKB1 kallikrein activity inhibition assay (chromogenic substrate S-2302); type: biochemical; details: Table C
Experimental: The KLKB1 kallikrein activity reported herein (e.g., Tables B, C, and D) was obtained as follows. Human KLKB1 protein was obtained from Enzyme Research Labs. […] KLKB1 was assayed in buffer containing 0.05 M Tris (pH 7.4), 0.01 M NaCl and 0.2% w/v PEG-8000. The final concentration of enzyme used was 3 nM KLKB1. […] All assays were performed in 96-well microtiter plates at room temperature (RT). […] Inhibitor IC50 values were determined by adding test compound as ten point, three-fold serial dilutions in buffer solution, as known in the art. The plate was read at 10 minutes after substrate addition. The IC50 was calculated by plotting the percent (%) inhibition against compound concentration and fitting the data to a constrained four parameter sigmoidal curve, as known in the art.

[1] = biological target: Recombinant human tissue kallikrein (KLK1) (Homo sapiens (Human), UniProt P06870); experiment: KLK1 kallikrein activity inhibition assay (Pro-Phe-Arg-AMC substrate); type: biochemical; details: Table C
Experimental: The KLK1 kallikrein activity reported herein (e.g., Tables B and C) was obtained as follows. Recombinant human tissue kallikrein (KLK1) was obtained from R&D Systems. […] KLK1 enzyme is activated by incubating 0.5 mg/ml KLK1 combined with 0.1 μg/ml thermolysin in a buffer of 0.05 M Tres (pH 7.5), 0.15 M NaCl, and 0.01 M CaCl2 for one hour at 37° C. The thermolysin is then deactivated by the addition of equal parts 20 mM 1, 10 phenanthroline solution in water. The activated KLK1 solution is then added to CHES buffer (0.05 M CHES, 0.15 M NaCl, 0.01 M CaCl2, pH 10) for a final concentration of 5 nM along with the test article and incubated for 10 minutes. […] Substrate activation is read 10 minutes after substrate addition using a Synergy H1 multifunction plate reader (Biotek) programmed with a 360 nm excitation wavelength and a 480 nm emission wavelength. Inhibitor response was established by adding test compound as ten point, three-fold serial dilutions, as known in the art. The IC50 was calculated by plotting the percent (%) inhibition against compound concentration and fitting the data to a constrained four parameter sigmoidal curve, as known in the art.

- IC50 (Human KLKB1): 1 to 10 µM
- IC50 [1]: 1 to 10 µM
Compound: COc1ccccc1C(=O)n1nc(-c2cccs2)nc1SC [Cmpd 15]
